{"source": "patent US20030181390A1", "about": "“Amino acid conjugates providing for sustained systemic concentrations of GABA analogues” (priority 2002, published 2003)", "settings": "rat, single oral dose of prodrug, 25 mg-equivalents of gabapentin per kg", "method": "The pharmacokinetics of the prodrugs prepared in Examples 1 and 3 were examined in rats. […] Animals were fasted overnight prior to dosing and until 4 hours post-dosing. Serial blood samples were obtained over 24 hours following dosing and blood was processed for plasma by centrifugation. Plasma samples were stored at −80° C. until analyzed.\nPlasma (50 μL) was precipitated by addition of […] of methanol and supernatant was injected directly onto the LC/MS/MS system. […] Following oral administration of gabapentin prodrugs, concentrations of prodrug and gabapentin in plasma were monitored over 24 hours.", "data": [{"substance": "L-Tyrosine-(O-2-Bromobenzyloxycarbonyl)-Gabapentin [4d]", "values": [{"measurement": "Cmax for prodrug (Cmax PD) in plasma", "value": "< 4", "unit": "ng/mL"}]}]}
